Test: UV-vis spectroscopy of enabler interaction with PVP (absorbance at 236 nm)
Assay type: physicochemical

OCCN(CCO)CCO
Absorbance (enabler 6.7 ppm with PVP in 95% v/v ethanol): −0.001
Absorbance (enabler 10 ppm with PVP in 95% v/v ethanol): 0.290
